Measurements: ChEMBL document CHEMBL2406907, “Chiral Effect of a Phe Residue in Position 3 of the Dmt(1)-L(or D)-Tic(2) Analogues on Opioid Functional Activities” (2013)

Sequences of proteins named here, by UniProt entry; tags and fusion partners are left off.
UniProt P32300, whole entry, looked up: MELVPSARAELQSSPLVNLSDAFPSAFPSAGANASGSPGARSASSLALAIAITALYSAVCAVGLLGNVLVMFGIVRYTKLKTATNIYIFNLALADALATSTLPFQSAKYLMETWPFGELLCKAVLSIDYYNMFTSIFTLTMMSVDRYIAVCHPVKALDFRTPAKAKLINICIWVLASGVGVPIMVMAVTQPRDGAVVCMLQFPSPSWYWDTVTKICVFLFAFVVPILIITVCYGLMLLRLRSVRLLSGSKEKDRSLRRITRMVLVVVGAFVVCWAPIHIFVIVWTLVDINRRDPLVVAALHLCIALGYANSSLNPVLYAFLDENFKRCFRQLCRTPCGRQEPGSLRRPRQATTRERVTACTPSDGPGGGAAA
UniProt P97266, whole entry, looked up: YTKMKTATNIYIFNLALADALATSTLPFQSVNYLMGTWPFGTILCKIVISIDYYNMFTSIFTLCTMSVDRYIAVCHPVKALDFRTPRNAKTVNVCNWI

Columns and labels:
[1] = Selectivity ratio of Ki for rat mu opioid receptor to Ki for human delta opioid receptor
[2] = biological target: Delta-type opioid receptor (Mus musculus) (UniProt P32300); test: Antagonist activity at delta opioid receptor in ICR mouse vas deferens
[3] = Selectivity ratio of IC50 for mu opioid receptor in Hartley guinea pig ileum to IC50 for delta opioid receptor in ICR mouse vas deferens
[4] = biological target: Mu-type opioid receptor (Cavia porcellus) (UniProt P97266); test: Agonist activity at mu opioid receptor in Hartley guinea pig ileum assessed as inhibition of electrically-stimulated muscle contraction at 1 uM relative to control

SMILES	Ratio Ki [1]	Ke [2] [nM]	Ratio IC50 [3]	inhibition [4] [%]
Cc1cc(O)cc(C)c1C[C@H](N)C(=O)N1Cc2ccccc2C[C@@H]1C(N)=O	0.067			
Cc1cc(O)cc(C)c1C[C@H](N)C(=O)N1Cc2ccccc2C[C@H]1C(N)=O	230	42		
Cc1cc(O)cc(C)c1C[C@H](N)C(=O)N1Cc2ccccc2C[C@@H]1C(=O)NCC(=O)N[C@@H](Cc1ccc(Cl)cc1)C(=O)O			23	
Cc1cc(O)cc(C)c1C[C@H](N)C(=O)N1Cc2ccccc2C[C@@H]1C(=O)N[C@H](Cc1ccc(Cl)cc1)C(=O)N1CCC(Cn2cncn2)(C2CCCCC2)CC1	0.026			6
